{"source": "patent US7144731B2", "about": "“SCF antibody compositions and methods of using the same” (Amgen Inc., priority 1989, dated 2006)", "molecules": {"B1": {"name": "IL-3: human interleukin-3 (protein, UniProt P08700 20-152, looked up)", "Interleukin-3": "APMTQTTPLKTSWVNCSNMIDEIITHLKQPPLPLLDFNNLNGEDQDILMENNLRRPNLEAFNRAVKSLQNASAIESILKNLLPCLPLATAAPTRHPIHIKDGDWNEFRRKLTFYLKTLENAQAQQTTLSLAIF"}}, "key": {"normal human bone marrow": {"system": "normal human bone marrow", "experiment": "Human CFU-GM assay", "assay_type": "cell-based", "settings": "average of triplicate cultures; SCF = COS-1 supernatant 4 days after transfection", "experimental": "Recombinant rat SCF, and other factors, were tested individually in a human CFU-GM [Broxmeyer et al., supra (1977)] assay which measures the proliferation of normal bone marrow cells and the data are shown in Table 6. Results for COS-1 supernatants from cultures 4 days after transfection with V19.8 SCF^1-162 in combination with other factors are also shown in Table 6. Colony numbers are the average of triplicate cultures."}, "human bone marrow": {"system": "human bone marrow", "experiment": "Human bone marrow colony assay", "assay_type": "cell-based", "settings": "agar colony assay, factors alone or combined"}}, "data": [{"molecule": "B1", "values": [{"measurement": "Colony #/100,000 cells (±SEM)", "setting": "normal human bone marrow", "result": "5 ± 1"}, {"measurement": "Colony #/10^5 cells (14 Days)", "setting": "human bone marrow", "result": "23 ± 1"}]}]}
